In PubChem BioAssay AID485349 (National Center for Advancing Translational Sciences (NCATS), 2010) one finds activation data, which are given here for 43 molecules.

The list shows a part of the results, in another mix than the full data. Some salts or complexes appear as unconnected parts, following the source record. Active and inactive are the calls of the source. Calls follow the shape of the dose curve; as a rule, active = well fitted activation curve with a large enough effect; inconclusive = small, poorly fitted or top-dose-only effect; inactive = no such curve, though single readings can be large or run the other way.

This assay is described as follows: qHTS Assay for Identifying a Potential Treatment of Ataxia-Telangiectasia. Also: % of control where 0% means no effect; nearly all actives have a fitted effect of over 45% in size. The note with it: […] A-T fibroblasts, KAP-1 phosphorylation AlphaLISA, neocarzinostatin DNA damage 30 min before lysis; at 57.5 µM (top of the series). The method in brief: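 hTERT-immortalized A-T patient fibroblasts ([…]), 500 cells/well in OPTI-MEM, 1% FBS, got compounds for 60 min, then NCS for 30 min at 37C. Lysates were then assayed for phospho-KAP-1 by AlphaLISA (anti-pKAP1 donor, anti-KAP1 acceptor beads), 6 hr at 25C.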
On the technique in general: In qHTS, concentration-response curves come from the screen itself.
In the case of `CCOC(=O)C(CC)C1=NC(C)(C)Cc2ccccc21.O=[N+]([O-])c1cc([N+](=O)[O-])c(O)c([N+](=O)[O-])c1` (stereo not drawn), the activation was inactive: -1.04%. In the case of `O=C(NCC1(N2CCCCC2)CCCCC1)c1cccc(C(F)(F)F)c1`, the activation was inactive: 1.67%. Then `O=[N+]([O-])c1cc([N+](=O)[O-])c(NCC2CCS(=O)(=O)C2)c([N+](=O)[O-])c1` (stereo not drawn), with inactive: 11.3%. With `CC(C)c1ccc(C(=O)NCC2(N3CCOCC3)CCCCC2)cc1` the figure was inactive: -0.689%; with `COc1ccc(NC2CCN(C(=O)OC(C)(C)C)CC2)cc1`, inactive: -1.38%; with `CN1CCN(CCOC(=O)C(O)(c2ccccc2)c2ccccc2)CC1`, inactive: 2.09%. With `COc1cc(C(=O)NCC2(N3CCCCC3)CCCCC2)ccc1OC(F)F` the figure was inactive: -4.42%. In the case of `O=C(NCC1(N2CCCCC2)CCCCC1)c1ccc(OC(F)F)cc1`, the activation was inactive: -2.93%. Then `O=C(NCC1(N2CCCCC2)CCCCC1)c1cccc([N+](=O)[O-])c1`, with inactive: 1.05%; and `CSc1ccc(C(=O)NCC2(N3CCOCC3)CCCCC2)cc1`, with inactive: 1.06%. Then `N#CC1(Nc2ccccc2)CCN(CCc2ccccc2)CC1`, with inactive: 3.07%; and `CCN1CCC(Nc2ccc(Cl)cc2)CC1`, with inactive: 0.889%; and `COc1ccc2c(c1O)-c1c(O)c(OC)cc3c1[C@H](C2)[N+](C)(C)CC3.O=[N+]([O-])c1cc([N+](=O)[O-])c([O-])c([N+](=O)[O-])c1[O-]`, with inactive: -16.1%. With `O=C(NCC1(N2CCCCC2)CCCCC1)c1cncc(Br)c1` the figure was inactive: 3.74%. `O=C(OC1CN2CCC1CC2)c1ccc([N+](=O)[O-])cc1` (stereo not drawn): the activation is inactive: 0.549%. As for `CCCOc1ccc(C(=O)NCC2(N(C)C)CCCCC2)cc1OC`, the activation is inactive: -2.27%. With `CN(C)c1cccc(C(=O)NCC2(N3CCCCC3)CCCCC2)c1` the figure was inactive: 4.36%; with `O=[N+]([O-])c1cc([N+](=O)[O-])c(OC2CCCCC2O)c([N+](=O)[O-])c1` (stereo not drawn), inactive: -0.684%; with `COc1ccc(CN(CCCl)CCCl)cc1Cl`, inactive: 8.66%. `CC(C)c1ccc(NC2CCN(C(=O)OC(C)(C)C)CC2)cc1`: the activation is inactive: -4.68%. Then `O=C(NCC1(N2CCOCC2)CCCCC1)c1cc(F)c(F)cc1Cl`, with inactive: 16.5%. Then `COc1cc(OC)c(C(=O)NCC2(N(C)C)CCCCC2)cc1OC`, with inactive: -2.86%; and `Cc1cc(C)cc(N(C(=O)c2ccccc2)C2CCN(C(=O)OC(C)(C)C)CC2)c1`, with inactive: -9.09%. Then `O=C(NCC1(N2CCCCC2)CCCCC1)c1ccc(Cl)nc1`, with inactive: -4.38%. `CCOC(=O)N1CCC(Nc2ccc(OC)cc2)CC1`: the activation is inactive: 2.92%. With `COc1ccc(Cl)cc1C(=O)NCC1(N2CCOCC2)CCCCC1` the figure was inactive: 8.32%. With `O=C(NCC1(N2CCCCC2)CCCCC1)c1ccc(Cl)s1` the figure was inactive: -0.032%. Take `N#CC1(Nc2ccccc2)CCN(Cc2ccccc2)CC1`: the activation was inactive: 1.94%. With `O=C(OC1CN2CCC1CC2)C1c2ccccc2Oc2ccccc21` (stereo not drawn) the figure was inactive: 3.2%; with `O=C(NCC1(N2CCCCC2)CCCCC1)c1cccs1`, inactive: 11.8%.

For the molecule `O=C(NCC1(N2CCCCC2)CCCCC1)c1ccc(=O)[nH]c1`, the activation was inactive: 6.56%. Then `CC(C)(C)OC(=O)N1CCC(N(C(=O)c2ccccc2)c2ccc(F)cc2)CC1`, with inactive: 6.67%; and `COc1ccc(C(=O)NCC2(N3CCCCC3)CCCCC2)c(OC)c1OC`, with inactive: 13.3%; and `COc1ccc(C(=O)NCC2(N3CCCCC3)CCCCC2)cc1`, with inactive: -3.53%.

Take `CSc1ccccc1C(=O)NCC1(N2CCCCC2)CCCCC1`: the activation was inactive: 1.61%.

For `Cc1ccc(OCC(C)C)c(CN(CCCl)CCCl)c1`, the activation was inactive: 5.91%.

For `CCOC(=O)N1CCC(Nc2cccc(C)c2)CC1`, the activation was inactive: -5.99%.

Turning to `COc1cc(C(=O)NCC2(N(C)C)CCCCC2)ccc1OC(F)F`, the activation is inactive: -6.82%.

`CCOc1ccc(C)cc1CN(CCCl)CCCl`: the activation was inactive: -0.283%. With `CCOC(=O)N1CCC(Nc2ccc(F)cc2)CC1` the figure was inactive: -12.2%; with `COc1ccc(NC2CCN(CCc3ccccc3)CC2)c(OC)c1`, inactive: -6.71%. Then `CCCCOc1ccc(C(=O)NCC2(N3CCOCC3)CCCCC2)cc1`, with inactive: 0.986%; and `O=C(NCC1(N2CCCCC2)CCCCC1)c1ccc(F)cc1`, with inactive: -8.23%.
